# Laboratory results reported in patent US12234248B2, “Co-crystal compounds comprising lithium ions and isonicotinamide” (UNIVERSITY OF LIMERICK, priority 2017, dated 2025).
# Experiment: Stability of crystalline material under warm humid conditions (40° C., 75% relative humidity), PXRD before and after
# Type: physicochemical
# Conditions: stored at 40° C., stable = retained crystal form for at least two weeks by PXRD
# Protocol: The stability of these compounds under warm humid conditions was assessed as follows:
# The crystalline material was stored at 40° C. in an atmosphere of 75% relative humidity.
# Compounds were classed as stable if they retained their crystal form for at least two weeks as verified by examination of PXRD patterns collected before and after exposure to humidity.
# It can be seen that the pattern obtained after 2 months at 75% relative humidity and 40° C. (upper trace) in this case is different.
row,Stable?,Substance
1,No,[Li2(tartrate)(L-proline)(water)2]n [Compound 20]
2,No,[(Li(camphorsulfonate)(L-proline))2](water)]n [Compound 34]
3,No,[Li4(salicylate)2(water)2]n [Compound 24]

row,Substance,Stable?
1,[Li(salicylate)(4-hydroxyproline)]n [Compound 13],Yes
